{"sequences": {"note": "Protein sequences, listed by entry. Tags and fused reporters are not part of them. Lines headed by an entry give the natural chain unless they say otherwise; changes in a name come on top.", "UniProt P21729": "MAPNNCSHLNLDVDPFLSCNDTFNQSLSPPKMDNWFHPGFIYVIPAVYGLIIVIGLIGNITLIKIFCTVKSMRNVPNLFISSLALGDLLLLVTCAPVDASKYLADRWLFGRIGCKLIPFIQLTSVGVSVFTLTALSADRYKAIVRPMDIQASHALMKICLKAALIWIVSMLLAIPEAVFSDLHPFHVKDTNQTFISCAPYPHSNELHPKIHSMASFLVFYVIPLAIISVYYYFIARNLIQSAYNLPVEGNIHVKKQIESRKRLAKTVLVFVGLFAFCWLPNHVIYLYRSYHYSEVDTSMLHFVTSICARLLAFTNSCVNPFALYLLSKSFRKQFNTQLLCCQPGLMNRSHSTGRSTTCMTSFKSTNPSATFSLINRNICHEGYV"}, "source": "patent US20170224778A1", "about": "“COMPOSITIONS AND METHODS THAT TARGET REGULATION OF BREATHING” (The Board of Trustees of the Leland Stanford Junior …, priority 2016, published 2017)", "key": {"[1]": {"biological_target": "T1, GRPR (Rattus norvegicus, UniProt P52500)", "T1 construct": "from tissue; host or cells: preBötC of the ventral medulla of living anesthetized Sprague Dawley rats", "assay": "Sighing and breathing of urethane-anesthetized rats after bilateral preBötC injection (GRP pathway)", "type": "in vivo", "details": "100 nl, 3 μM injected bilaterally into preBötC, n=5"}, "[2]": {"biological_target": "T2, GRPR (Mus musculus, UniProt P21729)", "T2 construct": "doublet rate increased following application of NMB or GRP to preBötC slice preparations; from tissue; host or cells: 550-μm transverse medullary slices with the preBötC, neonatal C57BL/6 mice (P0-5)", "assay": "Doublets (in vitro sigh signature) in explanted preBötC brain slices, GRP effect", "type": "cell-based", "protocol": "In vitro slice preparation, recording, and analysis. Rhythmic 550-μm-thick transverse medullary slices containing the preBötC and XII nerve from neonatal C57BL/6 mice (P0-5) were prepared as described previously (Kam et al., 2013). The medullary slice was cut in artificial cerebrospinal fluid (ACSF) containing (in mM): 124 NaCl, 3 KCl, 1.5 CaCl2, 1 MgSO4, 25 NaHCO3, 0.5 NaH2PO4, and 30 D-glucose, equilibrated with 95% O2 and 5% CO2 (4° C., pH=7.4). For recording, extracellular K+ was raised to 9 mM to replace excitatory afferent drive lost in the cutting process. Slices were perfused at 27° C. and 4 ml/min and allowed to equilibrate for 30 minutes. Respiratory activity reflecting suprathreshold action potential (AP) firing from populations of neurons was recorded as XII bursts from either XII nerve roots and as population activity directly from the preBötC using suction electrodes and a MultiClamp 700A or 700B (Molecular Devices, Sunnyvale, Calif., USA), filtered at 2-4 kHz and digitized at 10 kHz. Digitized data were analyzed off-line using custom procedures written for IgorPro (Wavemetrics, Portland, Oreg., USA). Activity was full-wave rectified and digitally integrated with a Paynter filter with a time constant of 20 ms with either custom built electronics or using custom procedures in MATLAB (Mathworks, Natick, Mass., USA). Burst detection and analysis of respiratory-related activity recorded in full-wave rectified XII output or preBötC population recordings were performed using custom software written in IgorPro. Burst parameters were normalized to the mode of the data in the baseline condition. Although there are several proposed definitions of sighs in slice preparations, here we used “doublets” (double-peaked bursts) as the in vitro signature of sighs because, in our preparations, doublets detected both in preBötC neural population activity measurements and cranial nerve XII output recordings shared the increased inspiratory and expiratory duration of sighs. […] Measured doublet intervals were converted to a calculated per hour doublet rate."}}}
{"substance": "gastrin releasing peptide [GRP]", "values": [{"measurement": "sighing increased (fold)", "setting": "[1]", "value": "8-16 fold"}, {"measurement": "more doublets (fold)", "setting": "[2]; 3 nM, mouse preBötC brain slices, p=0.003, n=9", "value": 1.7, "unit": "fold"}, {"measurement": "fraction of total events that are doublets", "setting": "[2]; preBötC slice, p<0.05, n=9", "value": "increasing"}, {"measurement": "interval following a doublet", "setting": "[2]; preBötC slice, p<0.05, n=9", "value": "decreasing"}]}
